For experiment [1], the target named is T1, human BCL6 BTB domain (Homo sapiens, UniProt P41182). Description: biochemical. The note with it: BCL6 TR-FRET IC50 individual replicates, single replicates; 10 nM BCL6 for early examples, else 1 nM. (In general: In TR-FRET formats the signal depends on donor and acceptor labels being close together.)
Experiment [2] deals with T1, human BCL6 BTB domain. The note with it: for BCL6 TR-FRET mean pIC50: mean of replicates; for LE: ligand efficiency, 1.4*(pIC50)/HAC from TR-FRET; for LLE: lipophilic ligand efficiency from TR-FRET pIC50 and MoKa logD7.4; for fold potency improvement over 5a: compared with 5a.
[3] abbreviates: read-out: BCL6 TR-FRET IC50, geometric mean of replicates.
[4] abbreviates: read-out: BCL6 TR-FRET IC50 individual replicates, single replicates, 10 nM BCL6 for early examples, else 1 nM.

This is an account of results in article PMC9234963, “Optimizing Shape Complementarity Enables the Discovery of Potent Tricyclic BCL6 Inhibitors” (Journal of Medicinal Chemistry, 2022).

“And” between values parts separate entries of the source, which are not always exact repeats. Identical values can stand only once. Like-named read-outs stand apart in the source and are kept apart here.

On to `Cn1c(=O)c2c(c3cc(Nc4ccnc(Cl)c4C#N)ccc31)NC(C1CC1)CCO2` (stereo not shown) [Compound 11a, 2-Chloro-4-((2-cyclopropyl-7-methyl-6-oxo-1,2,3,4,6,7-hexahydro-[1,4]oxazepino[2,3-c]quinolin-10-yl)amino)nicotinonitrile], for which the IC50 (in general, the concentration needed to halve the response being measured) was 69 nM and 93 nM in experiment [1]; 78 nM in experiment [2] (setting [3]); 75 nM in experiment [2] (setting [4]). Further, the “BCL6 TR-FRET mean pIC50” value in experiment [2] amounted to 7.11.

For `Cn1c(=O)c2c(c3cc(Nc4ccnc(Cl)c4C#N)ccc31)N[C@@H](C1CC1)CCO2` [Compound 12a, (R)-2-Chloro-4-((2-cyclopropyl-7-methyl-6-oxo-1,2,3,4,6,7-hexahydro-[1,4]oxazepino[2,3-c]quinolin-10-yl)amino)nicotinonitrile], the IC50 in experiment [1] is 27.4 nM and 26.7 nM and 34.3 nM and 62.4 nM and 42.4 nM and 53.1 nM.

For the compound `CC1Nc2c(c(=O)n(C)c3ccc(Nc4ccnc(Cl)c4C#N)cc23)OCC12CC2` (stereo not shown) [Compound 13d, 2-Chloro-4-((2′,7′-dimethyl-6′-oxo-1′,2′,6′,7′-tetrahydro-4′H-spiro[cyclopropane-1,3′-[1,4]oxazepino[2,3-c]quinolin]-10′-yl)amino)nicotinonitrile], in experiment [2], the LE is 0.27 and 0.2706; the LLE is 2.9 and 2.899.

Regarding `Cn1c(=O)c2c(c3cc(Nc4ccnc(Cl)c4C#N)ccc31)N[C@H](C1CC1)CCO2` [Compound 12b, (S)-2-Chloro-4-((2-cyclopropyl-7-methyl-6-oxo-1,2,3,4,6,7-hexahydro-[1,4]oxazepino[2,3-c]quinolin-10-yl)amino)nicotinonitrile], the IC50 in experiment [1] is 852 nM and 1480 nM; in experiment [2] (setting [3]) it was 1120 nM and 1100 nM; in experiment [2] (setting [4]), 1110 nM. The “BCL6 TR-FRET mean pIC50” value in experiment [2] was found to be 5.95.

Regarding `Cn1c(=O)c2c(c3cc(Nc4ccnc(Cl)c4C#N)ccc31)NC(C(F)F)CCO2` (stereo not shown) [Compound 11e, 2-Chloro-4-((2-(difluoromethyl)-7-methyl-6-oxo-1,2,3,4,6,7-hexahydro-[1,4]oxazepino[2,3-c]quinolin-10-yl)amino)nicotinonitrile], in experiment [2], the LE was 0.27 and 0.2657; the LLE was 3.69 and 3.7 and 3.694.

On to `CC1COc2c(c3cc(Nc4ccnc(Cl)c4C#N)ccc3n(C)c2=O)N1` (stereo not shown) [Compound 6, 2-Chloro-4-((2,6-dimethyl-5-oxo-2,3,5,6-tetrahydro-1H-[1,4]oxazino[2,3-c]quinolin-9-yl)amino)nicotinonitrile], for which, in experiment [2], the “fold potency improvement over 5a” value is > 3 fold; the LE is 0.30 and 0.3047; the LLE is 3.78 and 3.8 and 3.776.

`Cn1c(=O)cc(NC(C)(C)c2ncc(C3CC3)cn2)c2cc(Nc3ccnc(Cl)c3C#N)ccc21` [Compound 3]: in experiment [2], the LE is 0.30 and 0.3033; the LLE was 4.58 and 4.6 and 4.583.

For `CC1CCc2c(c3cc(Nc4ccnc(Cl)c4C#N)ccc3n(C)c2=O)N1` (stereo not shown) [Compound 5b, 2-Chloro-4-((2,6-dimethyl-5-oxo-1,2,3,4,5,6-hexahydrobenzo[h][1,6]-naphthyridin-9-yl)amino)nicotinonitrile], in experiment [2], the “fold potency improvement over 5a” value is > 3 fold; the LE was 0.29 and 0.2946; the LLE was 2.88 and 2.9 and 2.882.

Take `CC1CC(C)(C)Oc2c(c3cc(Nc4ccnc(Cl)c4C#N)ccc3n(C)c2=O)N1` (stereo not shown) [Compound 13b, 2-Chloro-4-((2,4,4,7-tetramethyl-6-oxo-1,2,3,4,6,7-hexahydro-[1,4]oxazepino[2,3-c]quinolin-10-yl)amino)nicotinonitrile]: in experiment [2], the LE was 0.23 and the LLE is listed as 1.3.

As to `CC(C)C1CCOc2c(c3cc(Nc4ccnc(Cl)c4C#N)ccc3n(C)c2=O)N1` (stereo not shown) [Compound 11d, 2-Chloro-4-((2-isopropyl-7-methyl-6-oxo-1,2,3,4,6,7-hexahydro-[1,4]oxazepino[2,3-c]quinolin-10-yl)amino)nicotinonitrile], in experiment [2], the LE is 0.26 and 0.2569; the LLE is 2.21 and 2.206.

In the case of `C[C@H]1COCc2c(c3cc(Nc4ccnc(Cl)c4C#N)ccc3n(C)c2=O)N1` [Compound 8, (S)-2-Chloro-4-((2,7-dimethyl-6-oxo-1,2,3,5,6,7-hexahydro-[1,4]oxazepino[6,5-c]quinolin-10-yl)amino)nicotinonitrile], in experiment [2], the LE was 0.28 and 0.2825; the LLE is 3.95 and 4.0.

Take `CCNc1c(C)c(=O)n(C)c2ccc(Nc3ccnc(Cl)c3C#N)cc12` [Compound 4, 2-Chloro-4-((4-(ethylamino)-1,3-dimethyl-2-oxo-1,2-dihydroquinolin-6-yl)amino)nicotinonitrile]: the “fold reduction in biochemical potency” value in experiment [2] (3-methyl compound 4 compared with 2) worked out at 4 fold. In addition, in experiment [2], the LE is 0.28 and 0.2829; the LLE is 2.15 and 2.2 and 2.153.

Consider `CCC1CCOc2c(c3cc(Nc4ccnc(Cl)c4C#N)ccc3n(C)c2=O)N1` (stereo not shown) [Compound 11b, 2-Chloro-4-((2-ethyl-7-methyl-6-oxo-1,2,3,4,6,7-hexahydro-[1,4]oxazepino[2,3-c]quinolin-10-yl)amino)nicotinonitrile], for which, in experiment [2], the LE was 0.30 and 0.2999; the LLE was 3.21 and 3.2 and 3.213.

For `N#Cc1c(Nc2ccc3[nH]c(=O)c4c(c3c2)NCCC4)ccnc1Cl` [Compound 5a, 2-Chloro-4-((5-oxo-1,2,3,4,5,6-hexahydrobenzo[h][1,6]naphthyridin-9-yl)amino)nicotinonitrile], in experiment [2], the LE was 0.29 and 0.2919; the LLE was 3.11 and 3.1 and 3.113.

Take `Cn1c(=O)c2c(c3cc(Nc4ccnc(Cl)c4C#N)ccc31)NC(C1CCC1)CCO2` (stereo not shown) [Compound 11c, 2-Chloro-4-((2-cyclobutyl-7-methyl-6-oxo-1,2,3,4,6,7-hexahydro-[1,4]oxazepino[2,3-c]quinolin-10-yl)amino)nicotinonitrile]: in experiment [2], the LE is 0.24 and 0.2423; the LLE is 2.07 and 2.1 and 2.065.

For `CCNc1cc(=O)[nH]c2ccc(Nc3ccnc(Cl)c3C#N)cc12` [Compound 2], in experiment [2], the LE was 0.34 and 0.3432; the LLE was 3.48 and 3.5 and 3.484.

On to `Cn1c(=O)c2c(c3cc(Nc4ccnc(Cl)c4C#N)ccc31)NCCCO2` [Compound 10, 2-Chloro-4-((7-methyl-6-oxo-1,2,3,4,6,7-hexahydro-[1,4]oxazepino[2,3-c]quinolin-10-yl)amino)nicotinonitrile], for which, in experiment [2], the LE was 0.25 and 0.2452; the LLE is 2.83 and 2.8 and 2.828.
